Data: patent US20090036380A1 (YEDA RESEARCH AND DEVELOPMENT, published 2009)

Columns and labels:
Test in all cases: RRS screen in yeast, whole Karet protein against an embryonic mouse brain library
[1] = target: T1, cytochrome P450, family 26, subfamily b, polypeptide 1 (Cyp26b1), mRNA (mouse, UniProt Q811W2 1-512, limits assumed)
T1 construct: RRS library clone (embryonic mouse brain)
T1 sequence (looked up): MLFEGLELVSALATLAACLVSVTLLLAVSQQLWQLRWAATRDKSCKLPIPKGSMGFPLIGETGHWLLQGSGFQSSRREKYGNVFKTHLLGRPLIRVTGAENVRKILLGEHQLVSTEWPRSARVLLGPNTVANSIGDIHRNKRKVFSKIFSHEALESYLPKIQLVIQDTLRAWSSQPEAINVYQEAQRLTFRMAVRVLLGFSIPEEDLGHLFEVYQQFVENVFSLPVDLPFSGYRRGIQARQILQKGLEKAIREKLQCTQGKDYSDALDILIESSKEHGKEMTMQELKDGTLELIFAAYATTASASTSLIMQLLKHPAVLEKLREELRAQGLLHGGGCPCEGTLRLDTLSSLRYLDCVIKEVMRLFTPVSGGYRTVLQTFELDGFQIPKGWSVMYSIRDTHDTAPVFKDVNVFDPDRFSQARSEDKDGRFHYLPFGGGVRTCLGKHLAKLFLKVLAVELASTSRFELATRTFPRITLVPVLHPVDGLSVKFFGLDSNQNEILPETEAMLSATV

[2] = target: T2, CAP, adenylate cyclase-associated protein 1 (mouse, UniProt P40124 2-474, limits assumed)
T2 construct: RRS library clone (embryonic mouse brain)
T2 sequence (looked up): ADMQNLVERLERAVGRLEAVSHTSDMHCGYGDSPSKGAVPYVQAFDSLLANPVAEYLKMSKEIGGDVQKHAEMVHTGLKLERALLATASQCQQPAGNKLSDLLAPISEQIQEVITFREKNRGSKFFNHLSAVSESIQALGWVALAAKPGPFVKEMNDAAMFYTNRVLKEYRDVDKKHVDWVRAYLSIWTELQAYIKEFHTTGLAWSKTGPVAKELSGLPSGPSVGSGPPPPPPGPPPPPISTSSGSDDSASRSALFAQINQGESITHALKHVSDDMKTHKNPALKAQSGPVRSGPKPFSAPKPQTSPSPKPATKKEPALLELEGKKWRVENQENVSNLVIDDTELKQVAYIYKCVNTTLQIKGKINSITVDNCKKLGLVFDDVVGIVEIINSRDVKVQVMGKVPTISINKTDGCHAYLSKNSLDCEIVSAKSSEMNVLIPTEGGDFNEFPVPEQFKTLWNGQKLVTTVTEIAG

[3] = target: T3, ATP Synthase, H+ transporting mitochondrial F1 complex, beta subunit(Atp5b) (mouse, UniProt P56480)
T3 construct: RRS library clone (embryonic mouse brain)

[4] = target: T4, Fyn- proto oncogene tyrosine protein kinase, mRNA (mouse, UniProt P39688)
T4 construct: RRS library clone (embryonic mouse brain)

[5] = target: T5, Ubiquitin-activating enzyme E1, Chr X (Ube1x), mRNA (mouse, UniProt Q02053 2-1058, limits assumed)
T5 construct: RRS library clone (embryonic mouse brain)
T5 sequence (looked up): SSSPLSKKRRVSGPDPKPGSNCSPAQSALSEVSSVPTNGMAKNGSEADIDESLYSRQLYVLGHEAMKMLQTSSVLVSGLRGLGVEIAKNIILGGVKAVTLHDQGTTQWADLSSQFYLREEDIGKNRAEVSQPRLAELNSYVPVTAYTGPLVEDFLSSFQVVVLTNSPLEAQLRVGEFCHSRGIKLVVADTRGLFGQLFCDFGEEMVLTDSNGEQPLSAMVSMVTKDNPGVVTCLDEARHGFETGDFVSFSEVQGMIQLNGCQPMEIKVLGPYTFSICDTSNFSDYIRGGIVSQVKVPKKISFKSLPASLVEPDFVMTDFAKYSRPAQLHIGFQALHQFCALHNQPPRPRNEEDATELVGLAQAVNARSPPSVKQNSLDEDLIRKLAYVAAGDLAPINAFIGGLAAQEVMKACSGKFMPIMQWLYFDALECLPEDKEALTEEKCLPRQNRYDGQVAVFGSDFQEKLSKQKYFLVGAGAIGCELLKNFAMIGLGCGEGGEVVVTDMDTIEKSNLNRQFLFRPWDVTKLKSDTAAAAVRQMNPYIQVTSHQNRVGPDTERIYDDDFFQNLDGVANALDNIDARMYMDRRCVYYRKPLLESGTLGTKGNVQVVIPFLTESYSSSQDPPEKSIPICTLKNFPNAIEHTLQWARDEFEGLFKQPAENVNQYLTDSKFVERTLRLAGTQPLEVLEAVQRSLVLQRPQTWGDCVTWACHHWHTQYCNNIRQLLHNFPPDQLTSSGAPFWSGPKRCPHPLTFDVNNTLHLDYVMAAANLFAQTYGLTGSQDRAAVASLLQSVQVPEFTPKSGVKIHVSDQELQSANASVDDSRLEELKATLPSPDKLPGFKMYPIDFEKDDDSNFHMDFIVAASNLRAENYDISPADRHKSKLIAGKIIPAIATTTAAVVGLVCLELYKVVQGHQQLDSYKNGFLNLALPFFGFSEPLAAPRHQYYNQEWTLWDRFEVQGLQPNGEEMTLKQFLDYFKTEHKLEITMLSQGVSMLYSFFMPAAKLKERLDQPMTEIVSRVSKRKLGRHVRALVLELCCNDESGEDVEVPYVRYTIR

[6] = target: T6, Neural precursor cell expressed, developmentally down-regulted gene 4 (Nedd4), mRNA (mouse, UniProt P46935)
T6 construct: RRS library clone (embryonic mouse brain)

Measured: binding result

B1: full length Karet protein (RRS bait) (other)
chain: MEEEGKKGKKPGIVSPFKRVFLKGEKSRDKKAHEKVTERRPLHTVVLALPERVEPDRLLSDYIEKEVKYLGQLTSIPGYLNPSSRTEILHFIDKAKRSHQLPGHLTQEHDAVLSLSAYNVKLAWRDGEDIILRVPIHDIAAVSYVRDDAAHLVVLKTAQDPGISPSQSLCAESSRGLSAGSLSESAVGPVEACCLVIMATESKVAAEELCSLLSQVFQIVYTESTIDFLDRAIFDGASTPTHHLSLHSDDSSTKVDMKDSYDADASTFCFPDSGDVGGLPPLPFCMQTSPHSKTVSESELSTSATELLQDYMLTLRTKLSSQEIQQFAALLHEYRNGASIHEFCISLRQLYGDSRKFLLLGLRPFIPEKDSQHFENFLETIGVKDGRGIITDSFGRHRRALSTTSTSTINGNRTTGSPDDRSAPSEGDEWDRMISDISSDIEALGCSMDQDSA
notes: Yeast RRS construct; fusion partner not described; also called whole Karet protein
binds: [1] | [2] | [3] | [4] | [5] | [6]
